# Measured values from patent publication EP0726257A1, “1-(Hetero)Arylvinyl-5H-2,3-benzodiazepine derivatives useful for the treatment of central nervous system disorders, and benzopyrylium intermediates for their preparation” (EGIS GYOGYSZERGYAR RT., priority 1995, dated 1996).
# Molecular target: homophthalazine binding site
# Assay: Displacement of 3H-girisopam from the homophthalazine binding site in rat brain striatal membrane preparation
# Conditions: displacing 5 nM 3H-girisopam
# Method: The binding affinity of 1-[2'-(substituted) vinyl]-5H-2,3-benzodiazepine derivatives according to the invention and of the reference substances to the homophthalazine binding site was measured by displacing 5 nM of ^3H-l-(3'-〈chloro〉-phenyl)-4-(methyl)-7,8-di-(methoxy)-5H-2,3-benzodiazepine [^3H-girisopam] in rat brain striatal membrane preparation. Ki values were calculated according to the following equation: Ki = IC50 :(1 +([L])/(KD)), [formula] wherein KD is the dissociation constant of the labelled ligand-receptor complex, [L] is the concentration of the labelled ligand and IC50 is the half maximal inhibitory concentration of the test compound.
smiles,measurement,value
"COc1cc2c(cc1OC)C(c1ccc(N)cc1)=NN=C(C)C2 [nerisopam, 1-(4'-〈amino〉-phenyl)-4-(methyl)-7,8-di-(methoxy)-5H-2,3-benzodiazepine, reference compound]",Ki,16 nM
